Assay results reported in ChEMBL document CHEMBL5725801, “Fused heterocyclic compounds as CaM kinase inhibitors” (2018).
pEC50: −log10 of the molar value.

Experiment: CaMKII Cell-Based Activity: CaMKII activity in neonatal rat ventricular myocytes (NRVM) was measured by monitoring the phosphorylation level of phospholamban using high-content imaging. NRVMs were plated in a clear bottom 384-well plate in medium supplemented with 10% fetal bovine serum (FBS) and incubated at 37° C., 5% CO2 overnight. The medium was changed to a serum-free medium and compounds were dosed to the cells. The cells were incubated at 37° C., 5% CO2 for 4 hours and were then treated with 100 nM ATX-II (Alomone Labs) to activate CaMKII. 10 minutes after the addition of ATX-II, the cells were fixed with 4% formaldehyde followed by permeabilization with 0.1% triton X100. The fixed cells were stained with an anti-phospho-phospholamban primary antibody (Santa Cruz Biotechnology) and an Alexa488-labeled anti-rabbit IgG secondary antibody (Life Technologies Corporation) as well as Hoechst 33342 (Life Technologies Corporation). The cells were imaged using an ArrayScan VTI (Cellomics) and analyzed for cells containing a positive fluorescent signal at 485 nm, reported as % responder. The % responders were plotted against the compound concentration to determine the compounds EC50.

For `N[C@H]1CCC[C@H]1NC(=O)c1ccnc(-c2cnn3ccc(-c4ccccc4)nc23)c1`, the pEC50 was 6.65.
